Measured values as given in ChEMBL document CHEMBL6134906, “Design, Synthesis, and Biological Evaluation of Selective STING Synergists That Enhance cGAMP-STING Pathway Activation without Inherent Agonist Activity” (J Med Chem, 2025).
Active and inactive are the calls of the source. No cut-off for these calls is given here.

Legend:
HEK293 = assay: Cytotoxicity against human HEK293 cells expressing mouse STING assessed as reduction in cell viability at 100 uM incubated for 48 hrs by CellTiter Glo luminescent cell viability assay; type: toxicity, cell-based; settings: hek293, 48 h
[1] = Cytotoxicity against human PBMC cells assessed as increase in IFN-beta mRNA level at 5 to 100 uM incubated for 4 hrs by RT-qPCR analysis; type: toxicity, cell-based; settings: dose 5-100 µM
[2] = Cytotoxicity against human PBMC cells assessed as increase in CXCL-10 mRNA level at 5 to 100 uM incubated for 4 hrs by RT-qPCR analysis; type: toxicity, cell-based; settings: dose 5-100 µM
[3] = Cytotoxicity against human PBMC cells assessed as increase in IFN-beta mRNA level at 25 uM incubated for 4 hrs in presence of cGAMP by RT-qPCR analysis; type: toxicity, cell-based
[4] = Cytotoxicity against human PBMC cells assessed as increase in CXCL-10 mRNA level at 25 uM incubated for 4 hrs in presence of cGAMP by RT-qPCR analysis; type: toxicity, cell-based
[5] = Cytotoxicity against human PBMC cells assessed as reduction in cell viability at 5 to 100 uM incubated for 24 hrs by CellTiter-Glo assay; type: toxicity, cell-based; settings: dose 5-100 µM
[6] = Cytotoxicity against human PBMC cells assessed as reduction in cell viability at 25 uM incubated for 24 hrs in presence of cGAMP by CellTiter-Glo assay; type: toxicity, cell-based
[7] = Toxicity in male C57BL/6 mouse assessed as effect on body weight at 20 to 100 mg/kg, ip administered for 7 days; type: organism-based; settings: in vivo, 168 h, dose 20-100 mg/kg, time 7 day
[8] = Toxicity in male C57BL/6 mouse assessed as effect on spleen weight at 20 to 100 mg/kg, ip administered for 7 days; type: organism-based; settings: in vivo, 168 h, dose 20-100 mg/kg, time 7 day
[9] = Toxicity in male C57BL/6 mouse assessed as effect on lung architecture at 20 to 100 mg/kg, ip administered for 7 days by H and E staining based analysis; type: organism-based; settings: in vivo, 168 h, dose 20-100 mg/kg, time 7 day
[10] = Toxicity in male C57BL/6 mouse assessed as effect on liver architecture at 20 to 100 mg/kg, ip administered for 7 days by H and E staining based analysis; type: organism-based; settings: in vivo, 168 h, dose 20-100 mg/kg, time 7 day
[11] = Toxicity in male C57BL/6 mouse assessed as effect on spleen architecture at 20 to 100 mg/kg, ip administered for 7 days by H and E staining based analysis; type: organism-based; settings: in vivo, 168 h, dose 20-100 mg/kg, time 7 day
[12] = Toxicity in male C57BL/6 mouse assessed as effect on kidney architecture at 20 to 100 mg/kg, ip administered for 7 days by H and E staining based analysis; type: organism-based; settings: in vivo, 168 h, dose 20-100 mg/kg, time 7 day
[13] = Toxicity in male C57BL/6 mouse assessed as hepatocellular vacuolation at 100 mg/kg, ip administered for 7 days by H and E staining based analysis; type: organism-based; settings: in vivo, 168 h, time 7 day
[14] = Toxicity in male C57BL/6 mouse assessed as nephrotoxic tubular degeneration at 100 mg/kg, ip administered for 7 days by H and E staining based analysis; type: organism-based; settings: in vivo, 168 h, time 7 day
[15] = Toxicity in male C57BL/6 mouse assessed as inflammatory infiltration at 100 mg/kg, ip administered for 7 days by H and E staining based analysis; type: organism-based; settings: in vivo, 168 h, time 7 day
[16] = Toxicity in male C57BL/6 mouse assessed as alanine aminotransferase level at 20 mg/kg, ip administered for 7 days by biochemical analysis (reference value: 41.6 U/L); type: organism-based; settings: in vivo, 168 h, time 7 day
[17] = Toxicity in male C57BL/6 mouse assessed as aspartate aminotransferase level at 20 mg/kg, ip administered for 7 days by biochemical analysis (reference value: 136.8 U/L); type: organism-based; settings: in vivo, 168 h, time 7 day
[18] = Toxicity in male C57BL/6 mouse assessed as aspartate aminotransferase level at 100 mg/kg, ip administered for 7 days by biochemical analysis (reference value: 136.8 U/L); type: organism-based; settings: in vivo, 168 h, time 7 day
[19] = Toxicity in male C57BL/6 mouse assessed as alkaline phosphatase level at 100 mg/kg, ip administered for 7 days by biochemical analysis (reference value: 268.4 U/L); type: organism-based; settings: in vivo, 168 h, time 7 day
[20] = Toxicity in male C57BL/6 mouse assessed as blood urea nitrogen level at 20 mg/kg, ip administered for 7 days by biochemical analysis (reference value: 6.9 mmol/L); type: organism-based; settings: in vivo, 168 h, time 7 day
[21] = Toxicity in male C57BL/6 mouse assessed as blood urea nitrogen level at 100 mg/kg, ip administered for 7 days by biochemical analysis (reference value: 6.9 mmol/L); type: organism-based; settings: in vivo, 168 h, time 7 day
[22] = Toxicity in male C57BL/6 mouse assessed as creatinine level at 20 mg/kg, ip administered for 7 days by biochemical analysis (reference value: 65.0 micromol/L); type: organism-based; settings: in vivo, 168 h, time 7 day
[23] = Toxicity in male C57BL/6 mouse assessed as creatinine level at 100 mg/kg, ip administered for 7 days by biochemical analysis (reference value: 65.0 micromol/L); type: organism-based; settings: in vivo, 168 h, time 7 day
[24] = Toxicity in male C57BL/6 mouse assessed as uric acid level at 100 mg/kg, ip administered for 7 days by biochemical analysis (reference value: 0.13 mmol/L); type: organism-based; settings: in vivo, 168 h, time 7 day
[25] = Toxicity in male C57BL/6 mouse assessed as creatine kinase level at 20 mg/kg, ip administered for 7 days by biochemical analysis (reference value: 312.6 U/L); type: organism-based; settings: in vivo, 168 h, time 7 day
[26] = Toxicity in male C57BL/6 mouse assessed as creatine kinase level at 100 mg/kg, ip administered for 7 days by biochemical analysis (reference value: 312.6 U/L); type: organism-based; settings: in vivo, 168 h, time 7 day
[27] = Toxicity in male C57BL/6 mouse assessed as CK-MB level at 20 mg/kg, ip administered for 7 days by biochemical analysis (reference value: 203.2 U/L); type: organism-based; settings: in vivo, 168 h, time 7 day
[28] = Toxicity in male C57BL/6 mouse assessed as CK-MB level at 100 mg/kg, ip administered for 7 days by biochemical analysis (reference value: 203.2 U/L); type: organism-based; settings: in vivo, 168 h, time 7 day
[29] = molecular target: T1, Stimulator of interferon genes protein (Mus musculus) (UniProt Q3TBT3); assay: Potentiation of SR717-induced mouse STING pathway activation expressed in HEK293 cells assessed as SEAP production at 50 uM incubated for 48 hrs by QUANTI-Blue solution based spectrophotometric analysis; type: cell-based; settings: filed as agonist
T1 sequence (whole entry): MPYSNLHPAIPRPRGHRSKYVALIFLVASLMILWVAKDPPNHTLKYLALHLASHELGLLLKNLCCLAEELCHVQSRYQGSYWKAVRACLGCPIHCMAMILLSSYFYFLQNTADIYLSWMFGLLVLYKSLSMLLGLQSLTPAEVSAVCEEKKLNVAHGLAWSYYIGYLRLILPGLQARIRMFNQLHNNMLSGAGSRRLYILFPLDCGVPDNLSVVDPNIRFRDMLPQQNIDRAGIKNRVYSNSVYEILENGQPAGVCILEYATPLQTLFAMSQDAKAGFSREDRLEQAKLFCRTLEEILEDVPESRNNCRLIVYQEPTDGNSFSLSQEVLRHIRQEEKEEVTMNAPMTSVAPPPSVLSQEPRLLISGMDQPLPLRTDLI

[30] = molecular target: T1, Stimulator of interferon genes protein (Mus musculus); assay: Potentiation of MSA-2-induced mouse STING pathway activation expressed in HEK293 cells assessed as SEAP production at 50 uM incubated for 48 hrs by QUANTI-Blue solution based spectrophotometric analysis; type: cell-based; settings: filed as agonist

For `CCOC(=O)Cn1c2ccc(C)cc2c(=O)c2cc(OC)c(C)c(C)c21`, the Activity (HEK293) was “Non-toxic”, the Activity [1] was “Non-toxic” and the Activity [2] was “Non-toxic”. For the same molecule, the Activity [3] was “Toxic”, the Activity [4] was “Toxic” and the Activity [5] was “Non-toxic”. For the same molecule, the Activity [6] was “Non-toxic”, the Activity [7] was “Non-toxic” and the Activity [8] was “Non-toxic”. For the same molecule, the Activity [9] was “Non-toxic”, the Activity [10] was “Non-toxic” and the Activity [11] was “Non-toxic”. For the same molecule, the Activity [12] was “Non-toxic”, the Activity [13] was “Non-toxic” and the Activity [14] was “Non-toxic”. For the same molecule, the Activity [15] was “Non-toxic”, the Activity [16] was 46.8 U/L and the Activity [17] was 148.4 U/L. The Activity [18] was 142.8 U/L, the Activity [19] was 277.8 U/L and the Activity [20] was 7.4 mmol/L. The Activity [21] was 7.3 mmol/L, the Activity [22] was 69.8 µmol/L and the Activity [23] was 66.6 µmol/L. The Activity [24] was 0.19 mmol/L, the Activity [25] was 324.4 U/L and the Activity [26] was 327.2 U/L. For the same molecule, the Activity [27] was 192.2 U/L, the Activity [28] was 213.6 U/L and the Activity [29] was “Active”. The Activity [30] was “Active”.
